Published antibiotic growth screens (doi:10.1038/s41589-023-01349-8)
This is one part of the list.

Tested on: A. baumannii ATCC 17978
Assay: relative growth (fraction of control); higher = less inhibition
Conditions: 50 µM

SMILES | relative growth
O=C(C[C@@H]1C[C@@H]2c3cc(NS(=O)(=O)c4ccc(F)cc4)ccc3O[C@@H]2[C@H](CO)O1)NC1CCCC1 | 0.982
CC(C)[C@H](N)C(=O)OCCOCn1cnc2c(=O)[nH]c(N)nc21.Cl | 1.32
CCc1cccc(C(C)C)c1NC(=O)Nc1ccccc1 | 1.09
COc1ccc([Si](C)(C)[C@H]2[C@H](CCn3cc([C@H](O)c4ccccc4)nn3)O[C@@]3(C(=O)N(Cc4cccc(N5CCC5=O)c4)c4ccccc43)[C@@H]2C)cc1 | 1.21
COc1ccc(C[C@@H](N)C(=O)N[C@@H]2[C@@H](O)[C@@H](n3cnc4c(N(C)C)ncnc43)O[C@@H]2CO)cc1 | 0.232
C=CCOC(=O)[C@H]1[C@@H]2C(=O)O[C@@H](c3ccccc3)[C@@H](c3ccccc3)N2[C@@H](c2ccc(OCCOC(=O)[C@H]3C[C@H]4C(=O)NCC(=O)N4[C@H]3c3ccc(O)cc3)cc2)[C@]12C(=O)Nc1ccc(I)cc12 | 1.25
COCCCNC(=O)[C@@]1(Sc2ccc(C)cc2)CC(=O)N(Cc2ccccc2C(F)(F)F)[C@@H]1c1ccc(CO)cc1I | 1.06
Cc1nnc(NS(=O)(=O)c2ccc(N)cc2)s1 | 1.02
COc1cccc(NC(=O)N2C[C@@H](O)COC[C@@H]3O[C@H](CC(=O)NC4Cc5ccccc5C4)CC[C@H]32)c1 | 1
C=CCSC[C@@H](N)C(=O)O | 1.04
C[C@@H](NC(=O)C[C@H]1CC[C@H](NC(=O)CN2CCOCC2)[C@@H](CO)O1)c1ccccc1 | 1.04
NC(=S)CS(=O)(=O)c1ccccn1 | 1.02
C[C@]12C=CC(=O)C=C1CCC1C2[C@@H](O)C[C@@]2(C)C1CC[C@]2(O)C(=O)COP(=O)([O-])[O-].[Na+].[Na+] (stereo partly drawn) | 0.994
CCCNC(=O)N1C[C@H](C)[C@H](OC)CN(C)C(=O)c2cc(NS(=O)(=O)CC(F)(F)F)ccc2OC[C@H]1C | 1.02
COC(=O)C1=C2CC[C@@H](COC(=O)NCCCCCC(=O)NO)NC(=O)N[C@H](Cc3ccccc3)c3cn(nn3)C[C@H](Cc3ccccc3)NC(=O)c3oc(c(C(=O)OC)c3C(=O)OC)CC[C@@H](COC(=O)NCCCCCC(=O)NO)NC(=O)N[C@H](Cc3ccccc3)c3cn(nn3)C[C@H](Cc3ccccc3)NC(=O)C(=C1C(=O)OC)O2 | 0.992
CC1O[C@@H](Oc2c(-c3ccc(O)c(O)c3)oc3cc(O)cc(O)c3c2=O)[C@H](O)[C@H](O)[C@H]1O (stereo partly drawn) | 0.891
COCC(=O)Nc1ccc2c(c1)C(=O)N(C)[C@@H]1CC[C@@H](CC(=O)NCc3ccccc3Cl)O[C@H]1CO2 | 0.943
O=S(=O)(N1CCOCC1)n1nnc2ccccc21 | 0.983
COCCOC(=O)N1C(=O)[C@@]2(c3cc(C#Cc4ccc(OC)cc4)ccc31)[C@H](c1ccc(O)cc1)N1[C@H](c3ccccc3)[C@H](c3ccccc3)OC(=O)[C@H]1[C@@H]2C(=O)N1CCCCCCC1 | 0.914
O=C1C2CC3CC1CC(O)(C3)C2 | 1.11
CCN1CCN(c2cc3c(cc2F)c(=O)c(C(=O)O)cn3C2CC2)CC1 | 0.147
Cl.Cl.N=C(N)N | 0.931
C[C@@H]1CN([C@@H](C)CO)S(=O)(=O)c2ccc(-c3cccnc3)cc2O[C@@H]1CN(C)C(=O)NC1CCCC1 | 0.991
COc1cc(NS(C)(=O)=O)ccc1Nc1c2ccccc2nc2ccccc12 | 0.83
Cn1cnc(S(=O)(=O)N2C[C@H](O)COC[C@H]3O[C@@H](CC(=O)NCc4ccc(F)cc4)CC[C@@H]32)c1 | 1.1

SMILES | relative growth
COCCCN(C[C@]1(O)CC[C@H]2C3=CC=C4C[C@@H](O)CC[C@]4(C)[C@@H]3CC[C@@]21C)C(=O)O[C@H]1C[C@@H](C)CC[C@@H]1C(C)C | 0.994
CCNC(=S)N1CCOCC1 | 0.961
O=C(CN1CCOCC1)NCC[C@H]1CC[C@@H](NC(=O)c2ccccc2F)[C@H](CO)O1 | 1.05
Oc1ccc(OCc2ccccc2)cc1 | 1.08
C[C@@H]1CN([C@@H](C)CO)S(=O)(=O)c2ccc(C#Cc3cccnc3)cc2O[C@@H]1CN(C)CC1CCOCC1 | 1.02
CCOC(=O)c1snc2c(=O)nc[nH]c12 | 0.953
CO[C@H]1CC(O[C@@H]2/C(C)=C/C[C@@H]3C[C@@H](C[C@]4(C=C[C@H](C)[C@@H](C5CCCCC5)O4)O3)OC(=O)[C@@H]3C=C(C)[C@@H](O)[C@H]4OC/C(=C\C=C\[C@@H]2C)[C@]43O)O[C@@H](C)C1O[C@H]1C[C@H](OC)[C@@H](O)[C@H](C)O1 (stereo partly drawn) | 0.936
CCCN1C[C@H](C)[C@H](OC)CN(C)C(=O)c2cc(NS(=O)(=O)c3cn(C)cn3)ccc2OC[C@@H]1C | 0.953
COC(=O)CNC(=O)C(=O)OC | 1.12
C[C@@H]1O[C@@H](OC[C@H]2OC(Oc3c(-c4ccc(O)c(O)c4)oc4cc(O)cc(O)c4c3=O)[C@H](O)[C@@H](O)[C@@H]2O)[C@H](O)[C@H](O)[C@H]1O (stereo partly drawn) | 1.01
CC(C)(C)Cc1ccc(OCCCC(=O)O)c(CC(C)(C)C)c1 | 1.41
O=C(O)Cn1c(=O)n(CC(=O)O)c2ccccc21 | 1
Cl.Clc1ccc2c(c1)CCc1cccnc1C2=C1CCNCC1 | 0.934
CC(C)(C)[S@@](=O)N1Cc2cc(C(=O)N3CCCCC3)nc(-c3cccc(-c4cccc(C#N)c4)c3)c2[C@H]1CCO | 1.04
C[C@H]1CN([C@@H](C)CO)S(=O)(=O)c2ccc(-c3ccncc3)cc2O[C@H]1CN(C)C(=O)c1ccc2c(c1)OCO2 | 1.03
CCn1nc(C)cc1C(=O)NN | 1.22
O=C(NCCO[N+](=O)[O-])c1cccnc1 | 1
Cc1ccc(S(=O)(=O)NCC[C@@H]2CC[C@H](NS(=O)(=O)c3ccccc3Cl)[C@@H](CO)O2)cc1 | 0.893
COc1cccc(S(=O)(=O)Nc2ccc3c(c2)[C@@H]2C[C@H](CC(=O)NCc4ccccc4F)O[C@H](CO)[C@@H]2O3)c1 | 0.992
NC(C(=O)O)C(O)c1ccc(O)c(O)c1 (stereo not drawn) | 1.1
O=c1ccc(-c2ccncc2)n[nH]1 | 1.16
CC1=Nc2ccc(Cl)cc2S(=O)(=O)N1 | 1.14
C=CCOC(=O)[C@@H]1[C@H]2C(=O)O[C@H](c3ccccc3)[C@H](c3ccccc3)N2[C@H](c2ccc(OCCOC(=O)[C@@H]3C[C@@H]4C(=O)N[C@@H](CC(C)C)C(=O)N4[C@@H]3c3ccc(O)cc3)cc2)[C@@]12C(=O)Nc1ccc(I)cc12 | 0.957
Cc1ccc(S[C@]2(C(=O)O)CC(=O)N(Cc3cc(C(F)(F)F)cc(C(F)(F)F)c3)[C@@H]2c2ccc(CO)cc2)cc1 | 0.925
CC(C(=O)O)c1ccc(N2Cc3ccccc3C2=O)cc1 (stereo not drawn) | 1.07

SMILES | relative growth
CNCC[C@H](Oc1cccc2ccccc12)c1cccs1.Cl | 0.809
CCn1nc(C(=O)O)c(=O)c2cc3c(cc21)OCO3 | 0.167
CO[C@@H]1CN(C)C(=O)c2ccc(NC(=O)Nc3ccccc3)cc2OC[C@H](C)N(C(=O)CN(C)C)C[C@H]1C | 1.13
O=c1c(-c2ccc(O)cc2)coc2c([C@@H]3O[C@H](CO)[C@@H](O)[C@H](O)[C@H]3O)c(O)ccc12 | 1.04
COc1cc(N2CCN(S(C)(=O)=O)CC2)nc(C)n1 | 1.08
CSc1nc(C)nc2ccccc12 | 0.848
CC(C)(Oc1ccc(C(=O)c2ccc(Cl)cc2)cc1)C(=O)O | 0.983
O=C(C[C@@H]1CC[C@H](NC(=O)c2cccnc2)[C@@H](CO)O1)NCCN1CCCCC1 | 0.93
CCCCNc1ccc(C(=O)OCCOCCOCCOCCOCCOCCOCCOCCOCCOC)cc1 | 0.944
CO[C@@H]1CN(C)C(=O)c2ccc(NC(=O)Nc3ccccc3)cc2OC[C@H](C)N(C(=O)CN(C)C)C[C@@H]1C | 1.08
COc1ccc(S(=O)(=O)N(C)C[C@@H]2Oc3ccc(NC(=O)Nc4cc(Cl)cc(Cl)c4)cc3CC(=O)N([C@@H](C)CO)C[C@@H]2C)cc1Cl | 0.953
CC(C)=CCC/C(C)=C/CC/C(C)=C/CC/C(C)=C/CC/C(C)=C/CC/C(C)=C/CC/C(C)=C/CC/C(C)=C/CC/C(C)=C/CO | 1.18
O=C(C[C@@H]1CC[C@@H]2[C@H](COC[C@H](O)CN2C(=O)c2ccc3c(c2)OCO3)O1)NCCN1CCCC1 | 1.11
C[C@H](CO)N1C[C@H](C)[C@@H](CN(C)C(=O)C2CCCCC2)Oc2cc(Br)ccc2S1(=O)=O | 0.792
O=S1(=O)OC(c2ccc(O)cc2)(c2ccc(O)cc2)c2ccccc21 | 1.01
OCCCC1=C[C@H](c2ccc(CN3CCCC3)cc2)N(Cc2cc3c(cc2Br)OCO3)CC1 | 1.02
C[C@H](NC(=O)C[C@H]1CC[C@@H](NC(=O)CN2CCOCC2)[C@H](CO)O1)c1ccccc1 | 0.815
COCCOC(=O)C1=C(C)NC(C)=C(C(=O)OC/C=C/c2ccccc2)C1c1cccc([N+](=O)[O-])c1 (stereo not drawn) | 1.59
C[C@@H]1CN([C@@H](C)CO)S(=O)(=O)c2ccc(C3=CCCC3)cc2O[C@H]1CN(C)C(=O)c1cnccn1 | 1.13
CN(C)Cc1cn(CC[C@H]2CC[C@H](NC(=O)Cc3cccnc3)[C@@H](CO)O2)nn1 | 0.94
O=C(O[C@@H]1Cc2c(O)cc(O)cc2O[C@@H]1c1cc(O)c(=O)c2c(O)c(O)cc([C@H]3Oc4cc(O)cc(O)c4C[C@H]3O)c2c1)c1cc(O)c(O)c(O)c1 | 0.902
CN1CCN(C(=O)C[C@@H]2CC[C@@H]3[C@H](COC[C@H](O)CN3C(=O)C3CC3)O2)CC1 | 0.988
C[C@H]1O[C@@H](O[C@H]2CC[C@@]3(C)[C@@H](CC[C@@]4(C)[C@@H]3CC=C3[C@H]5C[C@](C)(C(=O)O)CC[C@]5(C(=O)O[C@H]5O[C@@H](CO)[C@@H](O)[C@@H](O)[C@@H]5O)CC[C@@]34C)[C@@]2(C)CO)[C@@H](O)[C@@H](O[C@H]2O[C@@H](CO)[C@@H](O)[C@@H](O)[C@@H]2O)[C@@H]1O | 0.953
